This is an account of results in US9062289B2, “Differentiation of primate pluripotent stem cells to cardiomyocyte-lineage cells” (Asterias Biotherapeutics, Inc., priority 2005, dated 2015).

This assay relates to H7 hES cells. The assay can be described thus: Differentiation of H7 hES cells to cardiomyocyte-lineage cells with BMP-2 or BMP-4 (αMHC expression, FIG. 4). Type of assay: cell-based, human. Particulars: BMP at 25, 50 and 100 ng/ml after Activin A, 24-well plate, triplicate; control without Activin, BMP or IGF-I. As for the experimental part: Growth factor treatment: After 6 days of growth as described above, the cells' media was removed and replaced with RPMI plus 1× B27 supplement (Invitrogen) plus 50 ng/ml Activin A (R&D Systems). After 18-24 hours, the medium was removed and replaced with RPMI plus 1× B27 supplement plus 50 ng/ml BMP-4 (R&D Systems). After a total of 4 days in BMP-4-containing medium, the medium was removed and replaced with RPMI plus 1× B27 supplement plus 50 ng/ml IGF-1 (R&D Systems) without the Activin or BMP. The cultures were re-fed every 2-3 days by removing spent medium and replacing it with fresh RPMI plus 1× B27 supplement plus 50 ng/ml IGF-1 without the Activin or BMP.
A differentiation of H7 hES cells was performed as in Example 1, except that the differentiation was performed in a 24-well plate instead of a 6-well plate and the volume for the factors was 1 ml per well. In addition, BMP-2 and BMP-4 were used at concentrations of 25 ng/ml, 50 ng/ml, and 100 ng/ml. Each concentration was done in triplicate.

B1: BMP-2: Bone Morphogenetic Protein, a polypeptide growth factor of the TGF-β superfamily (protein, UniProt P12643 283-396, looked up)
Bone morphogenetic protein 2: QAKHKQRKRLKSSCKRHPLYVDFSDVGWNDWIVAPPGYHAFYCHGECPFPLADHLNSTNHAIVQTLVNSVNSKIPKACCVPTELSAISMLYLDENEKVVLKNYQDMVVEGCGCR
Regarding B1, the “effectiveness in the differentiation protocol (expression of αMHC as relative fold of the control)” value was “effective”.
